This passage reports IC50 results from ChEMBL document CHEMBL2417373, “Substituted tetrahydroisoquinolines as selective antagonists for the orexin 1 receptor” (J Med Chem, 2013).

Amino acid sequences for entries named in this document (tags omitted).
UniProt O43613, whole entry: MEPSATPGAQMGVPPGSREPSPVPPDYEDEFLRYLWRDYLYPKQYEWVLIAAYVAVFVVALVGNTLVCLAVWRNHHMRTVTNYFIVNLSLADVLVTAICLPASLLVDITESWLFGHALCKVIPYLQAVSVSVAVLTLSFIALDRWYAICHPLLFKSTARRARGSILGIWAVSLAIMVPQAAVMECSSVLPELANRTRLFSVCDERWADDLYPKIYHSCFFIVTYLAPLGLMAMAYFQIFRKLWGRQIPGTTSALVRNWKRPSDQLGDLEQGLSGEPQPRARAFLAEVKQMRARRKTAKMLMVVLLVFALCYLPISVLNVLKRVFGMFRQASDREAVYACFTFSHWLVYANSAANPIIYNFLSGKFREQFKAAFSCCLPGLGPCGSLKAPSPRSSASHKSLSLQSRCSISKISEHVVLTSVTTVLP

This assay deals with Orexin/Hypocretin receptor type 1 (Homo sapiens, UniProt O43613). Nature of the assay: Antagonist activity at OX1 receptor (unknown origin).

What is called IC50 is the concentration that inhibits the measured activity by half. `CNC(=O)[C@@H](c1ccccc1)N1CCc2cc(OC)c(OC)cc2[C@@H]1CCc1ccc(C(F)(F)F)cc1` [ALMOREXANT] displayed an IC50 of 119 nM.
